# Reference: PubChem BioAssay AID504441 (Broad Institute, 2011)
# The entries are a selection whose mix differs from that of the whole data set. Some results for these compounds are left out of this collection, so the calls shown say nothing about other tests. The source made the active and inactive calls. Rule as the data show it: active = inhibition above about 50%; inactive = the rest.
# Biological target: Dual specificity tyrosine-phosphorylation-regulated kinase 1A (Rattus norvegicus) (UniProt Q63470)
# Assay: rat Dyrk1A kinase inhibitors, primary screen, biochemical, single point, plate reader (AID 504441);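 also: plate controls were vehicle with enzyme for no effect and no enzyme for full effect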
# Conditions: ADP-Glo luminescence, NFATc1 peptide, at 12.5 µM, active compounds read high
row,Compound,inhibition
1,COc1ccc(Cl)cc1C(=O)NCC1(N(C)C)CCCCC1,inactive: -5.09%
2,O=C(NCC1(N2CCCCC2)CCCCC1)c1cccc(Cl)c1,inactive: 17.1%
3,CN(C)C1(CNC(=O)c2ccc(Br)cc2)CCCCC1,inactive: 5.71%
4,COc1cc(C(=O)NCC2(N(C)C)CCCCC2)c([N+](=O)[O-])cc1OC,inactive: -3.41%
5,COc1ccc(Br)c(C(=O)NCC2(N3CCCCC3)CCCCC2)c1,inactive: -4.28%
6,CN(C)c1cccc(C(=O)NCC2(N(C)C)CCCCC2)c1,inactive: 0.281%
7,CC(C)Oc1ccc(C(=O)NCC2(N(C)C)CCCCC2)cc1,inactive: -2.79%
8,O=C(OC1CN2CCC1CC2)C(CO)(c1ccccc1)c1ccccc1 (stereo not drawn),inactive: -5.83%
9,CC(C)N1C(=O)CC2(CCN(CCOC(=O)C(O)(c3ccccc3)c3ccccc3)CC2)C1=O,inactive: -3.86%
10,CCN(CC)CC(C)C(C)OC(=O)C(O)(c1ccccc1)c1ccccc1 (stereo not drawn),inactive: -5.56%
11,COc1cc(SC)ccc1C(=O)NCC1(N(C)C)CCCCC1,inactive: 3.09%
12,Cc1ccc(C(=O)NCC2(N3CCCCC3)CCCCC2)cc1,inactive: -3.61%
13,O=C(NCC1(N2CCCCC2)CCCCC1)c1cc([N+](=O)[O-])ccc1Cl,inactive: 8.19%
14,CN1[C@@H]2CC[C@H]1CC(OC(=O)C(O)(c1ccccc1)c1ccccc1)C2 (stereo partly drawn),inactive: -3.32%
15,C=CCN1CCN(CCOC(=O)C(O)(c2ccccc2)c2ccccc2)CC1,inactive: -1.7%
16,O=C(NCC1(N2CCCCC2)CCCCC1)c1cc(F)c(F)cc1Cl,inactive: -1.42%
17,Cc1cc(C(=O)NCC2(N3CCCCC3)CCCCC2)ccc1[N+](=O)[O-],inactive: -0.729%
18,CCN1CCCC(OC(=O)C2(O)c3ccccc3C=Cc3ccccc32)C1 (stereo not drawn),inactive: 6%
19,O=C(NCC1(N2CCCCC2)CCCCC1)c1cccc(Br)c1,inactive: 0.0377%
20,COc1ccc(C(=O)NCC2(N(C)C)CCCCC2)cc1,inactive: -3.66%
21,Cc1ccccc1C(=O)NCC1(N2CCCCC2)CCCCC1,inactive: 2.21%
22,CN(C)C1CCCC1OC(=O)C(O)(c1ccccc1)c1ccccc1 (stereo not drawn),inactive: -3.72%
23,CN(C)c1ccc(C(=O)NCC2(N(C)C)CCCCC2)cc1,inactive: -0.0107%
